## logP (octanol/water) values, as collected for the OPERA models

Data: OPERA 2.9 data sets, kmansouri/OPERA on GitHub.

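These are experimental values that the OPERA curators gathered from public databases to train and test their QSAR models. A listed value is a point estimate from one report or more. Method, purity and exact conditions of the single measurements are not given. The measured form (salt, isomer or mixture) is not always the one drawn. Some entries may be limits or estimates that an upstream database listed as plain numbers.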

logP is the log10 of the octanol-water partition coefficient; higher is more lipophilic.
Cells with "–" have no entry in this list.

| compound | name | log Kow |
|---|---|---|
| CC(=O)Nc1ccc(Nc2ccc(O)c3c2C(=O)c2ccccc2C3=O)cc1 | – | 3.151 |
| CCCCCCC#CC(=O)OC | Methyl 2-nonynoate | 3.4 |
| Cc1cc(=O)[nH]c(=S)[nH]1 | – | -1.703 |
| CC1CC(CC2CC(C)C(N)C(C)C2)CC(C)C1N (stereo not drawn) | 4,4'-Methylenebis(2,6-dimethylcyclohexan-1-amine) | 3.05 |
| CCC[C@H]1CC[C@H]([C@H]2CC[C@H](C(=O)O)CC2)CC1 | – | 6.44 |
| CCCCOC=O | Formic acid, butyl ester | 1.32 |
| C=C(C)C(=O)Nc1ccc(S(=O)(=O)Nc2nc(C)cc(C)n2)cc1 | – | 1.1 |
| COCCOCCOCCOC | Triethylene glycol dimethyl ether | -0.48 |
| Cc1cc(C#N)c(Nc2ccccc2[N+](=O)[O-])s1 | 5-Methyl-2-((2-nitrophenyl)amino)-3-thiophenecarbonitrile | 3.2 |
| CCC(C)Nc1ccc(Cc2ccc(NC(C)CC)cc2)cc1 (stereo not drawn) | 4,4'-Bis(sec-butylamino)diphenylmethane | 5.4 |
| FC(F)CCl | Ethane, 2-chloro-1,1-difluoro- | 1.3 |
| CC(C)Nc1cccnc1N1CCN(C(=O)c2cc3cc(NS(C)(=O)=O)ccc3[nH]2)CC1 | Delavirdine | 2.8 |
| CN(CCO)c1nc(Nc2ccccc2)nc(Nc2ccc(/C=C/c3ccc(Nc4nc(Nc5ccccc5)nc(N(C)CCO)n4)cc3S(=O)(=O)[O-])c(S(=O)(=O)[O-])c2)n1.[Na+].[Na+] | Disodium 4,4'-bis-(2-sulfostyryl)biphenyl | 1.2 |
| CC1CN(C(=O)c2ccccc2)CCN1 (stereo not drawn) | – | 0.35 |
| CCCCC(CC)CNCC(CC)CCCC (stereo not drawn) | 2-Ethyl-N-(2-ethylhexyl)-1-hexanamine | 7.3 |
| OCCN(CCO)C(CO)(CO)CO | – | -2.26 |
| C=COCCOCCOCCOC=C | 3,6,9,12-Tetraoxatetradeca-1,13-diene | 1.81 |
| N#CCCN(CCOC(=O)c1ccccc1)c1ccc(N=Nc2ccc([N+](=O)[O-])cc2)cc1 | C.I. Disperse Orange 73 | 4.8 |
| CC(C)C1CCC(CO)CC1 (stereo not drawn) | [4-(Propan-2-yl)cyclohexyl]methanol | 3.48 |
| CCCCCCCCN1CCCC1=O | 1-Octyl-2-pyrrolidone | 4.1 |
| CC(C#N)N(CC#N)CC#N (stereo not drawn) | 2-[Bis(cyanomethyl)amino]propanenitrile | 0.7 |
| CC(=O)N[C@@H](CC(N)=O)C(=O)O | N2-Acetyl-L-asparagine | -2.6 |
| CC(C)(C(=O)O)c1ccc(C#CCCN2CCC(C(O)(c3ccccc3)c3ccccc3)CC2)cc1 | – | 5 |
| O=C1c2ccc3c4ccc5c6c(ccc(c7ccc(c2c37)C(=O)N1c1ccc(N=Nc2ccccc2)cc1)c64)C(=O)N(c1ccc(N=Nc2ccccc2)cc1)C5=O | C.I. Pigment Red 178 | 1 |
| c1scc2c1OCCO2 | Thieno[3,4-b]-1,4-dioxin, 2,3-dihydro- | 1.976 |
| CC(C)CCCCCCOP(=O)(O)O | Phosphoric acid, isononyl ester | 1.09 |
| C=C(C)C(=O)OCC1CC2CC1C1CCC(COC(=O)C(=C)C)C21 (stereo not drawn) | – | 5.8 |
| O=C1c2ccccc2C(=O)c2c1ccc1nc(-c3cc(Cl)c(-c4nc5ccc6c(c5[nH]4)C(=O)c4ccccc4C6=O)cc3Cl)[nH]c21 | – | -0.1 |
| Cc1cc(O)ccc1/N=N/c1ccc(Nc2ccc(S(=O)(=O)[O-])cc2[N+](=O)[O-])cc1.[Na+] | – | -0.9 |
| Cl.NCC1CN(c2ccc(N3CCOCC3=O)cc2)C(=O)O1 (stereo not drawn) | – | -0.1 |

The last 3 entries again:

| compound | name | log Kow |
|---|---|---|
| O=C1c2ccccc2C(=O)c2c1ccc1nc(-c3cc(Cl)c(-c4nc5ccc6c(c5[nH]4)C(=O)c4ccccc4C6=O)cc3Cl)[nH]c21 | – | -0.1 |
| Cc1cc(O)ccc1/N=N/c1ccc(Nc2ccc(S(=O)(=O)[O-])cc2[N+](=O)[O-])cc1.[Na+] | – | -0.9 |
| Cl.NCC1CN(c2ccc(N3CCOCC3=O)cc2)C(=O)O1 (stereo not drawn) | – | -0.1 |